Values of other authors in patent publication US8846697B2, “Purine analogs” (The Regents of the University of California, priority 2006, dated 2014).

Protein sequences, listed by entry. Tags and fused reporters are not part of them. Residues count along the entry.
UniProt Q9NYK1, 27-1049, species assumed: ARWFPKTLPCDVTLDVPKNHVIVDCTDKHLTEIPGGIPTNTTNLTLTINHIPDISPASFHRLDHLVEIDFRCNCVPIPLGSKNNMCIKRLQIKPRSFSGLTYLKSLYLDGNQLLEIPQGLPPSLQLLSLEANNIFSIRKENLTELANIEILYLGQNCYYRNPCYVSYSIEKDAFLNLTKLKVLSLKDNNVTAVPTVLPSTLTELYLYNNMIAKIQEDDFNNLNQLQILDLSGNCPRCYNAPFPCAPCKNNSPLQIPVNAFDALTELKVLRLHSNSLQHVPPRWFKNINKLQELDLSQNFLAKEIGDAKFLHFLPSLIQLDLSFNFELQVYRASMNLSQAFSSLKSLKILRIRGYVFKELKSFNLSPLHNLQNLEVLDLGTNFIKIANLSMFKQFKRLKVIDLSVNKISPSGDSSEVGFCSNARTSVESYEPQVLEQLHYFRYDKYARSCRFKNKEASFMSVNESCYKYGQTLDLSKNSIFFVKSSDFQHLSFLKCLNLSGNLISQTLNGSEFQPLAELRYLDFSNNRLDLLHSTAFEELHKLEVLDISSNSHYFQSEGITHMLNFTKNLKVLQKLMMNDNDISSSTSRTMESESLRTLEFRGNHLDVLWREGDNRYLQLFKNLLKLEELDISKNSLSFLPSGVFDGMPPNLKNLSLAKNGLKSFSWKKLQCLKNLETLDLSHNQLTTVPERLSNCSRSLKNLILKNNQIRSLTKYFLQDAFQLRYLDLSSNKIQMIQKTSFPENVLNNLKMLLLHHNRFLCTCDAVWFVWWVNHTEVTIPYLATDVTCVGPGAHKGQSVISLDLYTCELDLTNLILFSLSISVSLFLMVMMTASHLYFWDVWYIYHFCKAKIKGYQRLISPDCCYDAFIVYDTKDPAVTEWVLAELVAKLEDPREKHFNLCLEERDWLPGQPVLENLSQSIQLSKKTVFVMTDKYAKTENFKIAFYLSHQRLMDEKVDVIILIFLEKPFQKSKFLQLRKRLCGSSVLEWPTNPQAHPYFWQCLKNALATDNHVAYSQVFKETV

Molecular target: TLR7 (Homo sapiens, UniProt Q9NYK1)
Details: cited from earlier work

Which “TLR signalling specificity (in words)” value does the source give for 9-benzyl-2-methoxyethoxy-8-oxoadenine here?
The value was “signalling exclusively through TLR7”.
